Consider one compound from ChEMBL document CHEMBL1126929, “Syntheses of 2,5- and 2,6-difluoronorepinephrine, 2,5-difluoroepinephrine, and 2,6-difluorophenylephrine: effect of disubstitution with fluorine on adrenergic activity” (J Med Chem, 1993).

Amino acid sequences for entries named in this document (tags omitted). A change or cut given only in a name is not applied to a line headed by its entry.
UniProt P15823: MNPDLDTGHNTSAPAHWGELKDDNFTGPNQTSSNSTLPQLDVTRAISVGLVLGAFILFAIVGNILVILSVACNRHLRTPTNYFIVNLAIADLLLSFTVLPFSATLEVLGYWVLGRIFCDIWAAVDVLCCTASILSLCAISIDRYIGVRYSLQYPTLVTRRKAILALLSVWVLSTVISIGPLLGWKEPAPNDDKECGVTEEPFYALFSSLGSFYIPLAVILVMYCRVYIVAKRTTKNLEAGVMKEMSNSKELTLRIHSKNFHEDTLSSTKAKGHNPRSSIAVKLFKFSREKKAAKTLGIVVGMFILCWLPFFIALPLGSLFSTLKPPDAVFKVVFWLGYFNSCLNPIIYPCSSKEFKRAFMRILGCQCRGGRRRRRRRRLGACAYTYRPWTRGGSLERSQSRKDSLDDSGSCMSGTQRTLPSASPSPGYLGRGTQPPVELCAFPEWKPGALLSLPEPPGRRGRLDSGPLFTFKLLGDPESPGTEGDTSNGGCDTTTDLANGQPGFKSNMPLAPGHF
UniProt P23944: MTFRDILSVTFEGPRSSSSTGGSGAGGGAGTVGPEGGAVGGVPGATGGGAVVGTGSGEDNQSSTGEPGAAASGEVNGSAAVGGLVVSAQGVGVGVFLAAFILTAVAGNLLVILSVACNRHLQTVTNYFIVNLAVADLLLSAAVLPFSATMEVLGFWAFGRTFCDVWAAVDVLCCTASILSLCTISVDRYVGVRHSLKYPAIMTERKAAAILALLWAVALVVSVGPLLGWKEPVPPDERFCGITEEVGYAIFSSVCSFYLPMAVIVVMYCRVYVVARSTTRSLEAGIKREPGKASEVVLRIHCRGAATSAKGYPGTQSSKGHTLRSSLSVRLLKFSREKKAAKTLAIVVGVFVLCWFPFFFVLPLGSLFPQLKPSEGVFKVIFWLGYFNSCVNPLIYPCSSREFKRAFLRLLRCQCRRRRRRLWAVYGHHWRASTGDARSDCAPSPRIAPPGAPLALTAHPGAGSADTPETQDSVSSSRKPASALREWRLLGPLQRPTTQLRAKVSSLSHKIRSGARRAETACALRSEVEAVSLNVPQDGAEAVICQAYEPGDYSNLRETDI
UniProt P43140: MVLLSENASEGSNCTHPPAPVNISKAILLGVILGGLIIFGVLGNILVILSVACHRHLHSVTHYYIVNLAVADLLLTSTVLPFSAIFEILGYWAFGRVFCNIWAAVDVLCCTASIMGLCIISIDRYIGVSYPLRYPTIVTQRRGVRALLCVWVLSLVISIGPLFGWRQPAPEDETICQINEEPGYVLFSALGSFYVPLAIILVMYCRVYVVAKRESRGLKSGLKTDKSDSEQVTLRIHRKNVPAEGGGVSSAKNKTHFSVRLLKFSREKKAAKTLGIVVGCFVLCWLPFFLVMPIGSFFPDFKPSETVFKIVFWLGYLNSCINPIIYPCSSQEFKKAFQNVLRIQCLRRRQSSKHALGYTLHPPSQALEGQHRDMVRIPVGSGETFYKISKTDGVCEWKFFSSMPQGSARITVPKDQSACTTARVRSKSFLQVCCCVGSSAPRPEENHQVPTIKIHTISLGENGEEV

The target of this assay is Adrenergic receptor alpha-1 (Rattus norvegicus, UniProt P15823+P23944+P43140). The experiment in a line: Displacement of [3H]WB-4101 from adrenergic alpha 1 receptor of rat cerebral cortical membranes. The assay is classed as cell membranes, Membrane. For orientation: Displacement assays read how much labelled ligand stays bound in the presence of the test substance.

A word on the Ki: it is a dissociation constant, usually derived from enzyme kinetics or from competition with a known ligand. Read a high Ki as a looser hold on the target.

Take `CNC[C@H](O)c1ccc(O)c(O)c1` [EPINEPHRINE]: the inhibitory constant (Ki) amounted to 2400 nM.
